Experimental data as given in patent US20150344822A1, “Decontaminant and Process for Decontamination of Chemicals from Infrastructural Materials” (priority 2014, published 2015).

Key:
rat = settings: oral (rat); cited from earlier work
[1] = Task 1A: surface adherence of contaminants on pipe materials, 7 days at 20-25° C.; assay type: physicochemical; settings: for Aqueous concentration of mercury, Conc. after 7-day / Ave. Adhesion Coefficient: 7 days, 20-25° C.; for Aqueous concentration of mercury, Conc. after 7-day: initial 22829.8 mg/L
[2] = 4-6° C.; for Ave. Adhesion Coefficient: 7 days
[3] = for Aqueous concentration of mercury, 7-Day Adherence / Ave. Adhesion Coefficient: 7 days, 20-25° C.; for Aqueous concentration of mercury, 7-Day Adherence: initial 19530.00 mg/L
[4] = 20-25° C.; for Ave. Adhesion Coefficient: 24 hours

Mercuric chloride [Mercury]
LD50 (rat): 1 mg/kg | Aqueous concentration of mercury, Conc. after 7-day ([1]; ACI pipe): 3.5 to 8.2 mg/L | Aqueous concentration of mercury, Conc. after 7-day ([1]; Copper pipe): 41.4 mg/L and 41.6 mg/L | Aqueous concentration of mercury, Conc. after 7-day ([1]; Copper pipe, listed as mercury): about 41 mg/L | Aqueous concentration of mercury, Conc. after 7-day ([1]; DIO pipe): 13836.1 mg/L and 11619.6 mg/L | adherence of mercury ([1]; HDPE and PVC pipes): limited or no adherence | Aqueous concentration of mercury, Conc. after 7-day ([1]; HDPE pipe): 22610.1 mg/L and 22845.6 mg/L | reduction in aqueous concentration after contact with pipe ([1]; PVC and DIE pipes): Very limited or no reduction | Aqueous concentration of mercury, Conc. after 7-day ([1]; PVC pipe): 22995.3 mg/L and 22763.5 mg/L | Ave. Adhesion Coefficient ([1]; mercury on ACI pipe): 13.16 L/m^2 | Ave. Adhesion Coefficient ([1]; mercury on Copper pipe): 6.61 L/m^2 | Ave. Adhesion Coefficient ([1]; mercury on DIO pipe): 7.73 L/m^2 | Ave. Adhesion Coefficient ([1]; mercury on HDPE pipe): 0.03 L/m^2 | Ranking Based on Adherence of a Particular Chemical on Various Surfaces ([1]; ranking by adherence (mg/m^2) on the pipe surfaces): ACI > DIW > DIO > Copper > HDPE > PVC = DIE | Aqueous concentration of mercury, 7-Day Adherence ([2]; Copper pipe, Mercury #1, initial 7737.5 mg/L): 0.7 mg/L and 1.1 mg/L | Aqueous concentration of mercury, 7-Day Adherence ([2]; Copper pipe, Mercury #2, initial 28800.0 mg/L): 5750.0 mg/L and 4880.0 mg/L | Aqueous concentration of mercury, 7-Day Adherence ([2]; DIW pipe, Mercury #2, initial 28800.0 mg/L): 20200.0 mg/L and 20500.0 mg/L | Ave. Adhesion Coefficient ([2]; Mercury^1 (initial 7737.5 mg/L) on Copper pipe): 6.58 L/m^2 | Ave. Adhesion Coefficient ([2]; Mercury^1 (initial 7737.5 mg/L) on DIW pipe): 16.30 L/m^2 | Ave. Adhesion Coefficient ([2]; Mercury^2 (initial 28800.0 mg/L) on Copper pipe): 5.45 L/m^2 | Ave. Adhesion Coefficient ([2]; Mercury^2 (initial 28800.0 mg/L) on DIW pipe): 5.62 L/m^2 | Aqueous concentration of mercury, 7-Day Adherence ([2]; PVC pipe, Mercury #1, initial 7737.5 mg/L): 7944.0 mg/L and 8238.0 mg/L | Aqueous concentration of mercury, 7-Day Adherence ([2]; PVC pipe, Mercury #2, initial 28800.0 mg/L): 28900.0 mg/L and 32000.0 mg/L | Aqueous concentration of mercury, 7-Day Adherence ([3]; COP (copper) pipe, before extraction with Pipe Klean): 2.21 mg/L and 3.21 mg/L | Aqueous concentration of mercury, 7-Day Adherence ([3]; COP (copper) pipe, before extraction with Simple Green): 2.08 mg/L and 1.84 mg/L | Aqueous concentration of mercury, 7-Day Adherence ([3]; COP (copper) pipe, before extraction with hypochlorite): 2.61 mg/L and 1.70 mg/L | Aqueous concentration of mercury, 7-Day Adherence ([3]; DIE pipe, before extraction with Pipe Klean): 21971.00 mg/L and 22035.00 mg/L | Aqueous concentration of mercury, 7-Day Adherence ([3]; DIE pipe, before extraction with Simple Green): 21626.00 mg/L and 21627.00 mg/L | Aqueous concentration of mercury, 7-Day Adherence ([3]; DIE pipe, before extraction with hypochlorite): 21288.00 mg/L and 21653.00 mg/L | adhesion coefficients of adhered mercury ([3]; DIW, Task 2, before application of decontaminants, range over groups): 10.4 to 13.9 L/m^2 | Aqueous concentration of mercury, 7-Day Adherence ([3]; PVC pipe, before extraction with Pipe Klean): 22578.00 mg/L and 22655.00 mg/L | Aqueous concentration of mercury, 7-Day Adherence ([3]; PVC pipe, before extraction with Simple Green): 19850.00 mg/L and 20343.00 mg/L | Aqueous concentration of mercury, 7-Day Adherence ([3]; PVC pipe, before extraction with hypochlorite): 19694.00 mg/L and 20876.00 mg/L | Ave. Adhesion Coefficient ([3]; mercury on Copper pipe, Before Application of Chlorine (300 mg/L)): 6.77 L/m^2 | Ave. Adhesion Coefficient ([3]; mercury on Copper pipe, Before Application of Pipe-Klean (1%)): 6.76 L/m^2 | Ave. Adhesion Coefficient ([3]; mercury on Copper pipe, Before Application of Simple Green (15%)): 6.72 L/m^2 | Ave. Adhesion Coefficient ([3]; mercury on DIW pipe, Before Application of Chlorine (300 mg/L)): 13.89 L/m^2 | Ave. Adhesion Coefficient ([3]; mercury on DIW pipe, Before Application of Pipe-Klean (1%)): 10.41 L/m^2 | Ave. Adhesion Coefficient ([3]; mercury on DIW pipe, Before Application of Simple Green (15%)): 13.49 L/m^2 | Aqueous concentration, Conc. after 24 hrs ([4]; Copper pipe, Mercury #1, initial 8171.5 mg/L): 1.5 mg/L and 1.7 mg/L | Aqueous concentration, Conc. after 24 hrs ([4]; Copper pipe, Mercury #2, initial 23950.0 mg/L): 10100.0 mg/L and 8180.0 mg/L | Aqueous concentration, Conc. after 24 hrs ([4]; DIW pipe, Mercury #1, initial 8171.5 mg/L): 5218.0 mg/L and 2874.2 mg/L | Aqueous concentration, Conc. after 24 hrs ([4]; DIW pipe, Mercury #2, initial 23950.0 mg/L): 15100.0 mg/L and 17900.0 mg/L | Ave. Adhesion Coefficient ([4]; Mercury^1 (initial 8171.5 mg/L) on Copper pipe): 6.61 L/m^2 | Ave. Adhesion Coefficient ([4]; Mercury^1 (initial 8171.5 mg/L) on DIW pipe): 7.47 L/m^2 | Ave. Adhesion Coefficient ([4]; Mercury^1 (initial 8171.5 mg/L) on PVC pipe): 0.39 L/m^2 | Ave. Adhesion Coefficient ([4]; Mercury^2 (initial 23950.0 mg/L) on Copper pipe): 4.15 L/m^2 | Ave. Adhesion Coefficient ([4]; Mercury^2 (initial 23950.0 mg/L) on DIW pipe): 5.41 L/m^2 | Aqueous concentration, Conc. after 24 hrs ([4]; PVC pipe, Mercury #1, initial 8171.5 mg/L): 7758.0 mg/L and 7627.0 mg/L | Aqueous concentration, Conc. after 24 hrs ([4]; PVC pipe, Mercury #2, initial 23950.0 mg/L): 24800.0 mg/L and 23100.0 mg/L

Mevinphos
LD50 (rat): LD50 oral (rat) 3.7-6.1 mg/kg

Values joined by “and” are separate entries in the source; they are usually repeats but may differ in a detail not shown here. Equal entries are not always repeated. Where two headings read alike, the source gives them in different places.
